Measurements from patent EP2351737A1, “3-Amino-1-arylpropyl indoles and aza-substituted indoles” (F. Hoffmann-La Roche AG, priority 2005, dated 2007).

Protein sequences, listed by entry. Tags and fused reporters are not part of them. Lines headed by an entry give the natural chain unless they say otherwise; changes in a name come on top.
UniProt P31645: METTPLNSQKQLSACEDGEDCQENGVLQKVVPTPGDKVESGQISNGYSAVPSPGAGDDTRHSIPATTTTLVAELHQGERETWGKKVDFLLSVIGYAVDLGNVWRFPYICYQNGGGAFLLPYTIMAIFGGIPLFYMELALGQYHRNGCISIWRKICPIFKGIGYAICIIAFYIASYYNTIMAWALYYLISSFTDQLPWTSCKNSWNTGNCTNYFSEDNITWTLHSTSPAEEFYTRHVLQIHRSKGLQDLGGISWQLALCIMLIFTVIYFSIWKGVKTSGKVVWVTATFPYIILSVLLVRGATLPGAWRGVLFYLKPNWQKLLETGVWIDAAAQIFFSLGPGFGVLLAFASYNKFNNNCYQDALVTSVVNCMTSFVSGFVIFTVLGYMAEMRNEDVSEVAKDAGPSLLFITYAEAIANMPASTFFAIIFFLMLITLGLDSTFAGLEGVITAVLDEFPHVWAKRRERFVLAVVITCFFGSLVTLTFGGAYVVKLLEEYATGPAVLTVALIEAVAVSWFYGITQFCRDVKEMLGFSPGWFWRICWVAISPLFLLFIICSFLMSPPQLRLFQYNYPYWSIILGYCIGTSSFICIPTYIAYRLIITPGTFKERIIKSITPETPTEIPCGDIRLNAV
UniProt P23975: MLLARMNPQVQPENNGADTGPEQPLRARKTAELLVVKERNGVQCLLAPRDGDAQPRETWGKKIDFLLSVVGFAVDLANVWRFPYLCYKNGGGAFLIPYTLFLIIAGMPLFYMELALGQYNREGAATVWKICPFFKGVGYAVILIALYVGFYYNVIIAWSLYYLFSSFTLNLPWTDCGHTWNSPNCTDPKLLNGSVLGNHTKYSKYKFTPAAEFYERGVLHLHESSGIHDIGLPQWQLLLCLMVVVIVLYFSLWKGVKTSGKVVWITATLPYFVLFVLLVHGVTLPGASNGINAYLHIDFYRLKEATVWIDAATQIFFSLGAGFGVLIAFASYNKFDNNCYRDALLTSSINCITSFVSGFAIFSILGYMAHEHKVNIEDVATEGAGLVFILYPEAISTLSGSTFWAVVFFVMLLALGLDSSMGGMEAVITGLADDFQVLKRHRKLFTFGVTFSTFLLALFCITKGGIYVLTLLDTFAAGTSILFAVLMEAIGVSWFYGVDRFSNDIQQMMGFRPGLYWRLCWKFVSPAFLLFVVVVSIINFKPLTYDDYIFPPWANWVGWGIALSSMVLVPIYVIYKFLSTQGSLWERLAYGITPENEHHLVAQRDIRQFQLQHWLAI

How the values were obtained:
[1] = biological target: Human Serotonin Transporter (hSERT) (Homo sapiens, UniProt P31645); test: Human Serotonin Transporter (hSERT) Scintillation Proximity Assay (SPA), competition with [3H]-Citalopram; assay type: binding; settings: membranes of HEK-293 cells expressing recombinant hSERT, Ki by Cheng-Prusoff
[2] = biological target: Human Norepinephrine Transporter (hNET) (Homo sapiens, UniProt P23975); test: Human Norepinephrine Transporter (hNET) Scintillation Proximity Assay (SPA), competition with [3H]-Nisoxetine

Substance: [3-(7-Chloro-1H-indol-5-yl)-3-phenyl-propyl]-methyl-amine
- pKi SERT [1]: 7.89
- pKi NET ([2]; competition with [3H]-Nisoxetine, membranes of HEK-293 cells expressing recombinant hNET, Ki by Cheng-Prusoff): 8.84
- IC50 ([2]; hNET SPA, [3H]-Nisoxetine): approximately 9.0
